According to PubChem BioAssay (NCI):
The list shows a part of the results, in another mix than the full data.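 Cells were grown in 96-well plates and exposed to the test compound at a single concentration for 48 hours; results are reported as percent growth, with values below 10 considered active.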 Some salts and complexes are drawn in separate pieces, as the source files them; their charges need not balance. Activity calls are given as the source filed them.

What was measured:
Assay in all cases: NCI-60 one-dose screen, 48 h (100 = growth as untreated, 0 = no growth, -100 = all killed)
Conditions in all cases: 10 µM
[1] = system: SK-MEL-2 melanoma
[2] = system: EKVX NSCLC
[3] = system: SN12C renal
[4] = system: UO-31 renal
[5] = system: TK-10 renal
[6] = system: ACHN renal
[7] = system: CAKI-1 renal
[8] = system: A498 renal
[9] = system: HL-60(TB) leukemia
[10] = system: CCRF-CEM leukemia

SMILES	growth [1]	growth [2]	growth [3]	growth [4]	growth [5]	growth [6]	growth [7]	growth [8]	growth [9]	growth [10]
O=[N+]([O-])OCCOc1ccc([N+](=O)[O-])cc1[N+](=O)[O-]	inactive: 105%	inactive: 63.5%	inactive: 101%	inactive: 86.7%	inactive: 106%	inactive: 102%	inactive: 90.4%	inactive: 82.3%	inactive: 96.6%	inactive: 97.6%
NC(=NCCN/C(N)=N/[N+](=O)[O-])N[N+](=O)[O-]	inactive: 88.4%	inactive: 94.7%	inactive: 99.9%	inactive: 96.2%	inactive: 89.6%	inactive: 113%	inactive: 99.3%	inactive: 88.1%	inactive: 94.7%	inactive: 85.1%
O=[N+]([O-])c1cc([N+](=O)[O-])c(Nc2nnnn2CCO)c([N+](=O)[O-])c1	inactive: 108%	inactive: 99.4%	inactive: 104%	inactive: 97%	inactive: 119%	inactive: 117%	inactive: 104%	inactive: 102%	inactive: 88.5%	inactive: 107%
O=[N+]([O-])c1cc([N+](=O)[O-])c(NCCO)c([N+](=O)[O-])c1	inactive: 100%	inactive: 93.5%	inactive: 88.8%	inactive: 66.6%	inactive: 115%	inactive: 48.8%	inactive: 80.7%	inactive: 77.3%	inactive: 96.5%	inactive: 67.9%
Cc1c([N+](=O)[O-])c(C)c([N+](=O)[O-])c(Nc2c([N+](=O)[O-])c(C)c([N+](=O)[O-])c(C)c2[N+](=O)[O-])c1[N+](=O)[O-]	active: -44.9%	active: -5.12%	active: 7.25%	active: -16.2%	inactive: 13.1%	inactive: 18.5%	active: -20.1%	active: -47.3%	active: -34.3%	–
CN(CCO)CCCl.O=[N+]([O-])c1cc([N+](=O)[O-])c(O)c([N+](=O)[O-])c1	inactive: 103%	inactive: 102%	inactive: 102%	inactive: 88.6%	inactive: 89%	inactive: 88.6%	inactive: 98.8%	–	inactive: 90.1%	inactive: 97.3%
CCOC(=O)Nc1c([N+](=O)[O-])cc([N+](=O)[O-])cc1[N+](=O)[O-]	inactive: 104%	inactive: 101%	inactive: 89.6%	inactive: 88.5%	inactive: 124%	inactive: 106%	–	inactive: 98.2%	inactive: 95.8%	inactive: 72.7%
N=C(N)N(N)[N+](=O)[O-]	–	inactive: 102%	inactive: 96.4%	–	inactive: 77.5%	inactive: 105%	inactive: 93.6%	inactive: 91.7%	inactive: 93%	inactive: 85.1%
CN(CCCl)CCCCCCCl	inactive: 76.1%	–	inactive: 94.5%	inactive: 80.9%	inactive: 98.8%	inactive: 88.3%	inactive: 72.3%	inactive: 95.5%	inactive: 95.2%	–
O=[N+]([O-])c1cc([N+](=O)[O-])c(O)c([N+](=O)[O-])c1.c1ccnnc1	inactive: 107%	–	inactive: 98.3%	inactive: 94%	inactive: 120%	inactive: 92.3%	inactive: 100%	inactive: 106%	inactive: 102%	–
CN(C)Nc1c([N+](=O)[O-])cc([N+](=O)[O-])cc1[N+](=O)[O-]	inactive: 85.4%	–	inactive: 96.1%	inactive: 91.3%	inactive: 127%	inactive: 107%	inactive: 113%	inactive: 112%	inactive: 96.7%	–
COC(=O)C(O)(c1ccccc1)c1ccccc1	inactive: 111%	–	inactive: 78.6%	inactive: 90.6%	inactive: 108%	inactive: 103%	inactive: 102%	inactive: 115%	inactive: 121%	inactive: 103%
O=[N+]([O-])N(CCOC(N(F)F)(N(F)F)N(F)F)CC([N+](=O)[O-])([N+](=O)[O-])[N+](=O)[O-]	–	–	inactive: 105%	inactive: 78.6%	inactive: 101%	inactive: 101%	inactive: 92.7%	inactive: 108%	inactive: 101%	inactive: 99.8%
O=[N+]([O-])N(CCN(CC(Br)([N+](=O)[O-])[N+](=O)[O-])[N+](=O)[O-])CC(Br)([N+](=O)[O-])[N+](=O)[O-]	inactive: 101%	–	inactive: 102%	inactive: 78%	inactive: 95.9%	inactive: 99.5%	inactive: 98.8%	inactive: 98%	inactive: 88.1%	inactive: 94%
O=[N+]([O-])c1cccc([N+](=O)[O-])c1O	–	inactive: 112%	inactive: 109%	inactive: 91.2%	inactive: 82.3%	inactive: 107%	inactive: 108%	inactive: 108%	inactive: 96.1%	inactive: 122%
O=[N+]([O-])c1cc([N+](=O)[O-])c(C(F)(F)F)c([N+](=O)[O-])c1O	inactive: 111%	inactive: 91.1%	inactive: 91.7%	–	inactive: 94.1%	inactive: 96.7%	inactive: 87.3%	inactive: 108%	inactive: 105%	inactive: 96.6%
COc1ccccc1-c1ccccn1.O=[N+]([O-])c1cc([N+](=O)[O-])c(O)c([N+](=O)[O-])c1	inactive: 111%	–	inactive: 99.4%	inactive: 84.6%	inactive: 95.7%	inactive: 95.7%	inactive: 84%	inactive: 106%	inactive: 105%	–
CP(=S)(Cl)N(CCCl)CCCl (configuration not stated)	inactive: 96.5%	–	inactive: 102%	inactive: 91.4%	inactive: 104%	inactive: 96.5%	inactive: 99.9%	inactive: 106%	inactive: 92.2%	–
CCN(CC)CCOC(=O)C(O)(c1cc(C)cc(C)c1)c1cc(C)cc(C)c1	–	inactive: 99.7%	inactive: 90.9%	inactive: 85.6%	inactive: 89.8%	inactive: 101%	inactive: 98.8%	inactive: 51.4%	inactive: 101%	inactive: 102%

SMILES	growth [1]	growth [2]	growth [3]	growth [4]	growth [5]	growth [6]	growth [7]	growth [8]	growth [9]	growth [10]
CCOC(=O)CSc1c(N)c(C)nn1C.O=[N+]([O-])c1cc([N+](=O)[O-])c(O)c([N+](=O)[O-])c1	inactive: 92.7%	–	inactive: 102%	inactive: 87%	inactive: 106%	inactive: 103%	inactive: 112%	inactive: 112%	inactive: 97.1%	inactive: 101%
Cc1c([N+](=O)[O-])cc([N+](=O)[O-])c(Br)c1[N+](=O)[O-]	inactive: 96.9%	inactive: 82.6%	inactive: 83.4%	active: -62.4%	active: -91.1%	active: -63.1%	–	inactive: 88.2%	active: -7.46%	active: 7.29%
CCCCCCCOP(=O)(CC)OCCCCCCC	inactive: 99.4%	–	inactive: 96%	inactive: 77.8%	inactive: 104%	inactive: 105%	inactive: 92.6%	inactive: 90.9%	inactive: 106%	inactive: 101%
NN/C(N)=N/[N+](=O)[O-]	–	inactive: 108%	inactive: 105%	inactive: 86.8%	inactive: 106%	inactive: 107%	inactive: 103%	inactive: 126%	inactive: 94.2%	–
CC[N+]([O-])(CC)Cc1ccccc1.O=[N+]([O-])c1cc([N+](=O)[O-])c(S(=O)(=O)O)c([N+](=O)[O-])c1	inactive: 116%	–	inactive: 94.8%	inactive: 97.2%	inactive: 118%	inactive: 96.9%	inactive: 90.7%	inactive: 93.3%	inactive: 98.9%	inactive: 92.1%
CCCOP(=S)(Cl)OCCC	inactive: 100%	–	inactive: 94.9%	inactive: 94.9%	inactive: 101%	inactive: 101%	inactive: 93%	inactive: 80.9%	inactive: 101%	inactive: 93.6%
CN(Cc1cccnc1)C(=O)COc1ccc(Cl)c(Cl)c1.O=[N+]([O-])c1cc([N+](=O)[O-])c(O)c([N+](=O)[O-])c1	inactive: 108%	–	inactive: 96.6%	inactive: 78.7%	inactive: 124%	inactive: 96.1%	inactive: 94.7%	inactive: 108%	inactive: 119%	inactive: 102%
CP(=O)(OCCCCl)N(CCCl)CCCl (configuration not stated)	inactive: 130%	–	inactive: 101%	inactive: 95.1%	inactive: 153%	inactive: 97.6%	inactive: 92%	inactive: 108%	inactive: 88.3%	–
CCN(CC)CCS	inactive: 102%	–	inactive: 105%	inactive: 84.4%	inactive: 98.6%	inactive: 102%	–	inactive: 102%	inactive: 105%	–
O=C1N([N+](=O)[O-])CCN1[N+](=O)[O-]	inactive: 113%	–	inactive: 98.9%	inactive: 83.7%	inactive: 110%	inactive: 99.1%	inactive: 103%	inactive: 91.8%	inactive: 115%	inactive: 100%
Clc1ccccc1SCCBr	inactive: 106%	inactive: 107%	–	inactive: 88.9%	inactive: 104%	inactive: 114%	inactive: 95%	inactive: 97.1%	–	inactive: 100%
CCOP(=O)(CC)OCC	inactive: 106%	–	inactive: 99%	inactive: 90.7%	inactive: 98.6%	inactive: 106%	inactive: 91.6%	inactive: 39.5%	inactive: 99.9%	inactive: 104%
CP(=O)(OCCCl)N(CCCl)CCCl (configuration not stated)	inactive: 80.8%	–	inactive: 107%	inactive: 91.1%	inactive: 98%	inactive: 95.8%	inactive: 99.8%	inactive: 107%	inactive: 98.7%	–
CN1CCN(CCOC(=O)C(O)(c2ccccc2)c2ccccc2)CC1	inactive: 99.7%	inactive: 100%	–	inactive: 86.3%	inactive: 102%	inactive: 101%	inactive: 98.8%	inactive: 108%	inactive: 89%	inactive: 119%
CNc1ccccc1.O=[N+]([O-])c1cc([N+](=O)[O-])c(O)c([N+](=O)[O-])c1	inactive: 108%	–	inactive: 90.1%	inactive: 93.7%	inactive: 111%	inactive: 102%	–	inactive: 74%	inactive: 96.3%	inactive: 98.3%
O=[N+]([O-])c1cc([N+](=O)[O-])c(O)c([N+](=O)[O-])c1.c1ccc([I+]c2ccccc2)cc1	–	inactive: 43.8%	inactive: 85%	inactive: 59.3%	inactive: 42.5%	inactive: 52%	inactive: 43.5%	inactive: 77.8%	inactive: 35.2%	inactive: 40.7%
CCN(C)CC.O=[N+]([O-])c1cc([N+](=O)[O-])c(O)c([N+](=O)[O-])c1	inactive: 105%	inactive: 94.1%	inactive: 102%	inactive: 90%	inactive: 101%	–	–	inactive: 92.3%	inactive: 96.1%	inactive: 95.1%
CC(C)N1CCN(CCOC(=O)C(O)(c2ccccc2)c2ccccc2)CC1	inactive: 104%	inactive: 94.7%	inactive: 105%	inactive: 90.9%	inactive: 95.6%	inactive: 98.1%	–	inactive: 95.9%	inactive: 93.1%	inactive: 97.2%
